This is an account of results in ChEMBL document CHEMBL1122654, “Phosphorus analogues of gamma-aminobutyric acid, a new class of anticonvulsants” (J Med Chem, 1984).

Sequences of proteins named here, by UniProt entry; tags and fusion partners are left off. A change or cut given only in a name is not applied to a line headed by its entry.
UniProt O09028: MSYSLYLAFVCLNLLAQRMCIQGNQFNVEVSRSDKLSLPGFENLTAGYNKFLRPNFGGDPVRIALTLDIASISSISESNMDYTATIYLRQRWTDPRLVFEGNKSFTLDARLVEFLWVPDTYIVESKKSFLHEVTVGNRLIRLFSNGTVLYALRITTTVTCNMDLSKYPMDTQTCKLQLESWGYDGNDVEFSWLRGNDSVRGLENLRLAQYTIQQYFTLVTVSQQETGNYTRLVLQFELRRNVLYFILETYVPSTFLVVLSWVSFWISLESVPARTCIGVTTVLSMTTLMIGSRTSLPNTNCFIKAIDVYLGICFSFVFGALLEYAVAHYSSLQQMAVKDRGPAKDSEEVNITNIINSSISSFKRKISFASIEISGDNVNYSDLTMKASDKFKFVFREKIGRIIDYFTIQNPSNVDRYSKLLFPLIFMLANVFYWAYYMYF
UniProt P15431: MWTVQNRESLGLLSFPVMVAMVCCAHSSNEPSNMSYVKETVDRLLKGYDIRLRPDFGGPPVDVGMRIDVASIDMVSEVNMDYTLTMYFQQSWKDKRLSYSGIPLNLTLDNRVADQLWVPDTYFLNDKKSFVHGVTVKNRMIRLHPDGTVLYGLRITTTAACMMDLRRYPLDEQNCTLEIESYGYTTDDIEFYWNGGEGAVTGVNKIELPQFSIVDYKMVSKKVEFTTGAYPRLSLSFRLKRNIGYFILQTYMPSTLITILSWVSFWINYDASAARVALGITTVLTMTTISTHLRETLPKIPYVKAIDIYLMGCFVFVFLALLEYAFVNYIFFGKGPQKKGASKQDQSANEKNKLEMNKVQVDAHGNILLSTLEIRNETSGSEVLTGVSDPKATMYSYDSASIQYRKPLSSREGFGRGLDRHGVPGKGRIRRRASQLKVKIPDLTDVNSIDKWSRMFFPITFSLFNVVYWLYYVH
UniProt P18506: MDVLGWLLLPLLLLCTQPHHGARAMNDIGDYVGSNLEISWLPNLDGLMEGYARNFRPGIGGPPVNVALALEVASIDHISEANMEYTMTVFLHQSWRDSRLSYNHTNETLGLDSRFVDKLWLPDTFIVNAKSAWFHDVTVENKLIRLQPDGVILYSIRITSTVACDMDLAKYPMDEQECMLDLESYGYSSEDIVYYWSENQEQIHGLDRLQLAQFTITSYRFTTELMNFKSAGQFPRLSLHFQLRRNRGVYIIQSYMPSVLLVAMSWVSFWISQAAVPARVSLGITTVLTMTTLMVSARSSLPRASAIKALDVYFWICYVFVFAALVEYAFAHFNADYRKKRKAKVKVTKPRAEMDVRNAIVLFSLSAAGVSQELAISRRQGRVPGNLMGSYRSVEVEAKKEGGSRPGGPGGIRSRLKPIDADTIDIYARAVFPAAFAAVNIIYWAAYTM
UniProt P18508: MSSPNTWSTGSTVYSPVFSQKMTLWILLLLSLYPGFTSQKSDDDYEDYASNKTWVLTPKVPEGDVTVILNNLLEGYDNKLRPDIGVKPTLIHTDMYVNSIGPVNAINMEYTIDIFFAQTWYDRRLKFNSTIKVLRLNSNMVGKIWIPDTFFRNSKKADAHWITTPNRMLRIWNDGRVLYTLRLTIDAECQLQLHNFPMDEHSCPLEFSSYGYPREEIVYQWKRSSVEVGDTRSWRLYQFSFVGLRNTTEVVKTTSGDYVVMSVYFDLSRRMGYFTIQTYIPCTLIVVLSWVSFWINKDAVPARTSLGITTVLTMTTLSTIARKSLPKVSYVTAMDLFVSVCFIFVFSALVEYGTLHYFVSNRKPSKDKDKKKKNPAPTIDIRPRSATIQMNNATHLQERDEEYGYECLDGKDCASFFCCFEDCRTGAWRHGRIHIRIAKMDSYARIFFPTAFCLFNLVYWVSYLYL
UniProt P19969: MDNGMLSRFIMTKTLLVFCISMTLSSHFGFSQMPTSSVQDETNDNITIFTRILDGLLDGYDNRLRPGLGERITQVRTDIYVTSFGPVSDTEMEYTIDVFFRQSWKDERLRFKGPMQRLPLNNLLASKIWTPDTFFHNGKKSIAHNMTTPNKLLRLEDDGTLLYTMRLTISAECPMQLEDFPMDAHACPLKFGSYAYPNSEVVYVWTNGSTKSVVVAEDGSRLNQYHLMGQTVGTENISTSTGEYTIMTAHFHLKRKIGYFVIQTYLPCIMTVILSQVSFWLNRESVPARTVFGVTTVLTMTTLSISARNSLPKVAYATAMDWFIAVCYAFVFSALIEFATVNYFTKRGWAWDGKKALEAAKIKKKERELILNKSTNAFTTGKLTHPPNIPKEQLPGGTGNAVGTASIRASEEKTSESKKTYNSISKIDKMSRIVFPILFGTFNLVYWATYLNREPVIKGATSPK
UniProt P20236: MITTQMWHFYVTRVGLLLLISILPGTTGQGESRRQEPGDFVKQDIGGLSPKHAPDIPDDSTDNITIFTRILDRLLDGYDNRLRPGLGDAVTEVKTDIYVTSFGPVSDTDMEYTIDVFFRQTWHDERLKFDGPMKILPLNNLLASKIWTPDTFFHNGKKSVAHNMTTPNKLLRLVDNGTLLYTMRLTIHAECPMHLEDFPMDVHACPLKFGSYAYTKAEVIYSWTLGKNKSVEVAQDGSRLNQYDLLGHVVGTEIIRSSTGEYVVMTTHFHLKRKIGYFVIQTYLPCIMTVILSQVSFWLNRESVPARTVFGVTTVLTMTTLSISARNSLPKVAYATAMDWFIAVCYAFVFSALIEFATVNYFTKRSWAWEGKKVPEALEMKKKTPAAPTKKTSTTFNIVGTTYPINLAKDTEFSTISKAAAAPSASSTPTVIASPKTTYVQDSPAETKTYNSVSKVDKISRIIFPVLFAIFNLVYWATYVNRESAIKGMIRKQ
UniProt P23574: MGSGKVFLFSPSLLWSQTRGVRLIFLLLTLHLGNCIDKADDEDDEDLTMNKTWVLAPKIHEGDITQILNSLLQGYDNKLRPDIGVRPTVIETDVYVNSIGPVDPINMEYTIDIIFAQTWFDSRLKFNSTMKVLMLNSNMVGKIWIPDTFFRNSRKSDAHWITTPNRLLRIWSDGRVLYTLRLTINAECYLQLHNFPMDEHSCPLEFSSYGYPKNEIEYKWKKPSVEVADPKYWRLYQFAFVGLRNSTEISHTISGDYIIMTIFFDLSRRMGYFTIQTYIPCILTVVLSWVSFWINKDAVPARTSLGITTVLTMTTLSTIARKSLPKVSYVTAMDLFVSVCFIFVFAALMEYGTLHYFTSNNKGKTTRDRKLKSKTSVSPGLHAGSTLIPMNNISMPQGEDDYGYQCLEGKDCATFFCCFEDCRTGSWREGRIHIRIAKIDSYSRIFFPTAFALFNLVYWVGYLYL
UniProt P23576: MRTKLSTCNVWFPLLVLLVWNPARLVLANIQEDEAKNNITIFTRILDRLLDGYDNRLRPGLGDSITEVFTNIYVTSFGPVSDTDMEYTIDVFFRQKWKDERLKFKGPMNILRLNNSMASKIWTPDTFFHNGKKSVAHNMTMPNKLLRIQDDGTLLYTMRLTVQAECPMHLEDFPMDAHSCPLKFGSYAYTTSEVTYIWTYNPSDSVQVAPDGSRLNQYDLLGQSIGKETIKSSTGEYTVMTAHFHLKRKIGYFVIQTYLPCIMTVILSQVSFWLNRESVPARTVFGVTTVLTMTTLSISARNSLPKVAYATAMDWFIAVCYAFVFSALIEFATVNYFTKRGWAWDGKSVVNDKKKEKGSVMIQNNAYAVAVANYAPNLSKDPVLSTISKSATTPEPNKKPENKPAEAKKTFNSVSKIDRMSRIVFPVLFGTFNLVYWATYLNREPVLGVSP
UniProt P28471: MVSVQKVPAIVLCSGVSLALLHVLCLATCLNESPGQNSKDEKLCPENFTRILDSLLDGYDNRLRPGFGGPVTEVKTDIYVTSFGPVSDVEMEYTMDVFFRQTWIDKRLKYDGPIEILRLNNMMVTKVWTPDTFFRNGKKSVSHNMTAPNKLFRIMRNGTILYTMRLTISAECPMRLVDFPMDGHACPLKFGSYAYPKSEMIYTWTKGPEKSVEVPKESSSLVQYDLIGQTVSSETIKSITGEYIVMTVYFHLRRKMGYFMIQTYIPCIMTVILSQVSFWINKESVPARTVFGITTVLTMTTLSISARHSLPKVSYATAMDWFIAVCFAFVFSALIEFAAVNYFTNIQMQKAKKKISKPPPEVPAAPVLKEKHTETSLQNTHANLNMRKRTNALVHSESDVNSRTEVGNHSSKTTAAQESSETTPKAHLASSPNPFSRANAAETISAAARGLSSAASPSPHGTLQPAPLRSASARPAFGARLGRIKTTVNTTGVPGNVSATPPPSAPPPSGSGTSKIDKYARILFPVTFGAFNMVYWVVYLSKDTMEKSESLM
UniProt P28473: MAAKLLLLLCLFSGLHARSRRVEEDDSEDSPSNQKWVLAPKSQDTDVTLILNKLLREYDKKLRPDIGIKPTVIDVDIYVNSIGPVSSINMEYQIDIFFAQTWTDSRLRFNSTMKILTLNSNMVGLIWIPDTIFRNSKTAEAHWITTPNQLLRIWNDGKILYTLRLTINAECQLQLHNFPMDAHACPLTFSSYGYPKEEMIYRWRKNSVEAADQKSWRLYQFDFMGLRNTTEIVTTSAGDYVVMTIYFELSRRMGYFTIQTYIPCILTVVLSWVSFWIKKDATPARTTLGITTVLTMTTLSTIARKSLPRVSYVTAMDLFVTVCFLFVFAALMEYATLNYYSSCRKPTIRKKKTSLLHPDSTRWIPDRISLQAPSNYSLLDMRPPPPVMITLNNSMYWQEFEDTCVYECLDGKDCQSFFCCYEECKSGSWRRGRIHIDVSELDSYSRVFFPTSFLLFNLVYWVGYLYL
UniProt P30191: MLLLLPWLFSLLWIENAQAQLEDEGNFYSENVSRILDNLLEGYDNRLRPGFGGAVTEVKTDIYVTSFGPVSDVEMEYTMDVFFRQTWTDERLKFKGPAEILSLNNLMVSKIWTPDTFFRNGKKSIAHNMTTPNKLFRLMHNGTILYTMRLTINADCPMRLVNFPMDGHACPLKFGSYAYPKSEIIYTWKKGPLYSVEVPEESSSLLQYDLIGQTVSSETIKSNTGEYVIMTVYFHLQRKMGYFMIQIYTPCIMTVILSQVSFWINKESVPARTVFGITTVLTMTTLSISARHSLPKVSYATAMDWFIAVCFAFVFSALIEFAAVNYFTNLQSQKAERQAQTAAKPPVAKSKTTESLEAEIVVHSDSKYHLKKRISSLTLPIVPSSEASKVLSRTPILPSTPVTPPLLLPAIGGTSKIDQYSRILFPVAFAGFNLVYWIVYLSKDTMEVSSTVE
UniProt P62813: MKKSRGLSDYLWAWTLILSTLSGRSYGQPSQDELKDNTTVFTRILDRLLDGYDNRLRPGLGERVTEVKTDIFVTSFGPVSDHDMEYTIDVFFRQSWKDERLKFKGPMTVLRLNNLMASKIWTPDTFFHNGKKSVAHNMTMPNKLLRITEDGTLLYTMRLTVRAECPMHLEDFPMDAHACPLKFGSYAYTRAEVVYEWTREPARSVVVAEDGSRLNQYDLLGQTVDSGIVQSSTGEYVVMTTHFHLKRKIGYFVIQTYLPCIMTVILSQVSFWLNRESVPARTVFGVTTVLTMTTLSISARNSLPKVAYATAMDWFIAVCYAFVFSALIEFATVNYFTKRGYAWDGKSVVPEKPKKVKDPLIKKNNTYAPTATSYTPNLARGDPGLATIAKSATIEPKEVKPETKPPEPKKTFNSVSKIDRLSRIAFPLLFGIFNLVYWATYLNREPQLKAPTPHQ
UniProt P63079: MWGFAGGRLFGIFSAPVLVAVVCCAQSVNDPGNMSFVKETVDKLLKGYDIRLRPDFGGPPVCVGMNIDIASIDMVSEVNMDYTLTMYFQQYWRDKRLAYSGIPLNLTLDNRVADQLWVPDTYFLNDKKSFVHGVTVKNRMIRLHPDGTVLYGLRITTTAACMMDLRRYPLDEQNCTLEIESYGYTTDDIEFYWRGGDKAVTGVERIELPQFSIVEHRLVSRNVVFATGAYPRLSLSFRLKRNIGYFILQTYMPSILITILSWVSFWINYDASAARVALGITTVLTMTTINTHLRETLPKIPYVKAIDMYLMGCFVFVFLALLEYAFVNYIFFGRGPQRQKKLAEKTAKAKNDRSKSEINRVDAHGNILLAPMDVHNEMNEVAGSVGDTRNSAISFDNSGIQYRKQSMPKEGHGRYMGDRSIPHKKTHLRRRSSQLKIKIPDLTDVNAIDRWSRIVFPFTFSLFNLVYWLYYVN
UniProt P63138: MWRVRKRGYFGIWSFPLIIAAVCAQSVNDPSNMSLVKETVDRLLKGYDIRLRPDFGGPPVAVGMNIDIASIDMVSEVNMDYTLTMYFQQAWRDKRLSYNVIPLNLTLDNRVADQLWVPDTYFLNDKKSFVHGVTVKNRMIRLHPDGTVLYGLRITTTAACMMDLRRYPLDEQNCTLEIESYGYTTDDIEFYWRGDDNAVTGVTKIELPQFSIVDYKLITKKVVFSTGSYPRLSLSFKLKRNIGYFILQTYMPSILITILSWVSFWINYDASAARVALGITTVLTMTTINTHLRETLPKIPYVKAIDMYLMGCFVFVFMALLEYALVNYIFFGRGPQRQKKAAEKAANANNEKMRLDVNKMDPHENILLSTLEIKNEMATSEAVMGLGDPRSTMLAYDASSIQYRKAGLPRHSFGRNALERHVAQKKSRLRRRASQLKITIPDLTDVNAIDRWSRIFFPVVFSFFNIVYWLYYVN

Calls of active or inactive are those of the source.

Test [1] deals with Mus musculus. Put plainly: In vivo anticonvulsant activity against pentylene tetrazole seizure threshold(SMC) in mice 0.5 hr after sc administration; inactive at 600 mg/kg. It counts as functional, organism-based. Also noted: dose 600 mg/kg.
Test [2] concerns the target GABA-A receptor; anion channel (Rattus norvegicus) (UniProt O09028+P15431+P18506+P18508+P19969+P20236+P23574+P23576+P28471+P28473+P30191+P62813+P63079+P63138+Q91ZM7+Q9ES14). Description: Displacement of [3H]-GABA from Gamma-aminobutyric acid A receptor binding sites in brain homogenates (relative to 1 mM GABA) at 100 uM. It counts as tissue-based. Summed up: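 Male Sprague-Dawley rat brain, frozen, homogenized in 50 mM Tris-citrate (pH 7.1 at 4 °C). Membranes treated with 0.05% Triton X-100 for 30 min at 37 °C and resuspended at 0.5–1.0 mg/mL protein. Incubated with 8 nM [3H]GABA for 5 min at 4 °C, stopped by centrifugation, and counted by scintillation. Test concentration 100 µM. Expressed as percent of the inhibition given by 1 mM GABA. Mean of two experiments, each in triplicate.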
In general terms: In a radioligand displacement assay an active substance lowers the binding of a labelled ligand.

Test [3] deals with Mus musculus. Put plainly: In vivo anticonvulsant activity against electric shock induced seizures(MES) in mice 4 hr after ip administration; no activity observed at 600 mg/kg.
Test [4] relates to Mus musculus. Description: In vivo anticonvulsant activity against electric shock induced seizures(MES) in mice 0.5 hr after ip administration; active at 600 mg/kg. It counts as functional, organism-based. Also noted: dose 600 mg/kg.
Test [5] relates to Mus musculus. Description: In vivo anticonvulsant activity against pentylene tetrazole seizure threshold(SMC) in mice 0.5 hr after sc administration; active at 300 mg/kg.

Usually inhibition stands for the relative decrease from the control value, in per cent. Regarding `CCOP(=O)(NCCN)OCC`, the Anticonvulsant activity result in test [1] and in test [3] was “inactive” in each case. The inhibition in test [2] was below 10%. For the same compound, the Anticonvulsant activity result in test [4] and in test [5] was “Active” in each case.
